Experiments:
[1] = system: H460 human lung cancer xenograft; experiment: H460 human lung cancer xenograft, antitumor activity and tolerability; details: PLX038 IV 200 mg/kg, cisplatin IP 5 mg/kg, once a week for 2 weeks
[2] = system: HCT116 human colon cancer xenograft; experiment: HCT116 human colon cancer xenograft, antitumor activity and tolerability; details: PLX038 200 mg/kg, irinotecan 60 mg/kg, IV once a week for 2 weeks
[3] = system: MKN45 human gastric cancer xenograft; experiment: MKN45 human gastric cancer xenograft, antitumor activity and tolerability; details: PLX038 200 mg/kg, irinotecan 60 mg/kg, IV once a week for 2 weeks
[4] = system: NCI-N87 human gastric cancer xenograft; experiment: NCI-N87 human gastric cancer xenograft, antitumor activity and tolerability; details: PLX038 200 mg/kg, irinotecan 60 mg/kg, IV once a week for 2 weeks
[5] = system: H446 human small cell lung cancer xenograft; experiment: H446 human small cell lung cancer xenograft, antitumor activity and tolerability; details: PLX038 IV 200 mg/kg, cisplatin IP 5 mg/kg, once a week for 2 weeks
[6] = system: Panc-1 human pancreatic cancer xenograft; experiment: Panc-1 human pancreatic cancer xenograft, antitumor activity and tolerability; details: PLX038 IV 200 mg/kg, gemcitabine IP 50 mg/kg, once a week for 2 weeks

O-[7-(tetra-polyethylene glycol ether)-carboxamido-1-cyano-2-heptyl]-N-(10′-methoxy-7′-ethyl-camptothecin)-N-[4′-(diethylcarbamoyl)phenyl)] carbamate
tolerability [1]: well-tolerated
tolerability [2]: well tolerated
tolerability [3]: well-tolerated
tolerability [4]: well-tolerated
tolerability [5]: well-tolerated
tolerability [6]: well-tolerated

— US20260041680A1, “METHODS OF TREATING CANCER WITH LONG-ACTING TOPOISOMERASE I INHIBITOR” (priority 2022, published 2026)
